Protein sequences, listed by entry. Tags and fused reporters are not part of them. Residues count along the entry.
UniProt P35222, 138-686: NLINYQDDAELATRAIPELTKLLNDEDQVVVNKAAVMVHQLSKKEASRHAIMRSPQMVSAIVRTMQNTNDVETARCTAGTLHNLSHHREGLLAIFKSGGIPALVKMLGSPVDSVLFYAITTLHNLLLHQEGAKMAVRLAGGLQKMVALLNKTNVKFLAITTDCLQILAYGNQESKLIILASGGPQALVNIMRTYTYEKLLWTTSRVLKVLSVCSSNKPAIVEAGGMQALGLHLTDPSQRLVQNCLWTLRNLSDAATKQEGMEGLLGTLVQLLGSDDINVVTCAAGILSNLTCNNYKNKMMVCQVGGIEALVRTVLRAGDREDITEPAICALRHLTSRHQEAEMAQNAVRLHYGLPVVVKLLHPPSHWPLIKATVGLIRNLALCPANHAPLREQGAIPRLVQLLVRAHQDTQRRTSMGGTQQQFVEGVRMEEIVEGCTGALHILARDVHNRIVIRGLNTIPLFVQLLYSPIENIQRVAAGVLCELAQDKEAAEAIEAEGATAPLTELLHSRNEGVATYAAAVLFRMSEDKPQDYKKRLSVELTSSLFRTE

In patent US9284299B2, “Substituted 1H-indazol-1-ol analogs as inhibitors of beta catenin/Tcf protein-protein interactions” (UNIVERSITY OF UTAH RESEARCH FOUNDATION, priority 2012, dated 2016):

Molecular target: β-catenin/Tcf4 interaction (Homo sapiens (Human), UniProt P35222)
Assay: Fluorescence polarization (FP) competitive inhibition assay, β-catenin/Tcf4
Type: binding
Details: Table 2; mean ± standard deviation (n=3)
Method: Experiments were performed in 96-well Microfluor 2 black plates (Waltham, Mass.), and the samples were read by a Synergy 2 plate reader (Biotek, Winooski, Vt.). […] The final reaction volume is 100 μL.
In the foregoing equation, mP, is the signal of the positive control; mPbound is the signal of the negative control; and mP is the signal of the tested inhibitor compound.

Ki [µM]	Compound
180 ± 2.91	c1cc2[nH]ncc2cc1CCc1nn[nH]n1 [Compound 16, 5-(2-(2H-TETRAZOL-5-YL)ETHYL)-1H-INDAZOLE]
180 ± 2.91	O=C(c1cccnc1)N(Cc1nn[nH]n1)c1ccc2c(cnn2O)c1 [Compound 21, N-((2H-TETRAZOL-5-YL)METHYL)-N-(1-HYDROXY-1H-INDAZOL-5-YL)NICOTINAMIDE]
